Consider 1 compound from US20250353848A1, “HETEROCYCLIC PAD4 INHIBITORS” (Celgene Corporation, priority 2022, published 2025).

Protein sequences, listed by entry. Tags and fused reporters are not part of them.
UniProt Q9UM07, whole entry: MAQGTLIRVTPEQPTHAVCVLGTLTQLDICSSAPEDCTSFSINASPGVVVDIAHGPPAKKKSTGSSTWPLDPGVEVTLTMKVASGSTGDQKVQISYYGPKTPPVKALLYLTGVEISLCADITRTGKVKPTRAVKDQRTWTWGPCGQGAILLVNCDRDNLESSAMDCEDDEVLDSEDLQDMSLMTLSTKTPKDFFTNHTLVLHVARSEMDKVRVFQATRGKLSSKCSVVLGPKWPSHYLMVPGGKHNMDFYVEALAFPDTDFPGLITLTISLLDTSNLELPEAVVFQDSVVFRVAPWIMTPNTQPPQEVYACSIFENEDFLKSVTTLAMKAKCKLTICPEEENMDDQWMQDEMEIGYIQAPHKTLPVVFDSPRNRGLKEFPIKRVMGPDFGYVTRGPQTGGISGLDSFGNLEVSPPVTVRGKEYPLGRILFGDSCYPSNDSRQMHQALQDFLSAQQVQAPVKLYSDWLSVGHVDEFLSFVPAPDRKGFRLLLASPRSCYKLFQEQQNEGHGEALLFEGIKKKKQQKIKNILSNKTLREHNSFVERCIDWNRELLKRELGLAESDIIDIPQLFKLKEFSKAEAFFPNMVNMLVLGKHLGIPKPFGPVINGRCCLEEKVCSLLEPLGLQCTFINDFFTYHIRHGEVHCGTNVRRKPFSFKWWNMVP

Test [1] concerns the target T1, hPAD4 enzyme (Homo sapiens, UniProt Q9UM07). The experiment in a line: RFMS Assay 2 (rapid-fire mass spectrum PAD4 inhibition assay, peptide substrate). The following applies: read-out: human PAD4 (hPAD4) IC50, RFMS Assay 2; 35 nM recombinant human PAD4, substrate TSTGGRQGSHH, room temperature for 30 minutes. As to the method:
Stock compounds were dissolved and stored in 100% DMSO. Compound solutions were prepared via serial dilution at 3-fold intervals in DMSO with top compound concentration at […] in each assay. 0.25 μl of compound solution was transferred from the compound plate to the assay plate by using an acoustic dispenser. Final assay conditions: • Total reaction volume: 25 μl • Assay buffer: […] pH 7.4, 200 mM NaCl, 2 mM CaCl2, 5 mM DTT • 35 nM recombinant human PAD4 • 500 µM TSTGGRQGSHH (SEQ ID NO: 1) • 1.2% DMSO • Stop solution: 10% formic acid
Reaction mixtures were incubated at room temperature for 30 minutes. 10 μl each of the reaction mixtures was then mixed with 40 μl of 10% formic acid in a microtiter plate. The plate was frozen at −80° C. before shipping out on dry ice for RapidFire mass spectroscopy analysis.
Thawed samples were loaded onto the Rapid Fire 300 system (Agilent) wherein they were first sipped for 250 ms and then loaded onto a Agilent “C” (C18) cartridge using a mobile phase of water containing 0.09% formic acid/0.01% trifluoroacetic acid for 3000 ms desalting flowing at a rate of 1.5 ml/min. […]
MRM transitions for substrate and product were monitored in positive ESI mode at m/z=562.3/969.7 and m/z=562.8/541.3 respectively. […]

Test [2] addresses T1, hPAD4 enzyme. The experiment in a line: RFMS Assay 1 (rapid-fire mass spectrum PAD4 inhibition assay, BAEE substrate). The following applies: read-out: human PAD4 (hPAD4) IC50, RFMS Assay 1; 5 nM hPAD4 enzyme, 250 μM BAEE, 30 mins compound and enzyme preincubation at 37° C., 90 min enzyme/substrate reaction. The procedure:
Compounds were solubilized in 100% DMSO to achieve a 10 mM compound concentration. Compound stock solutions were stored at RT. A series of dilutions were prepared in DMSO and mixed 8 times with 20 μL mixing volume. Final top concentration of compound in the assay is 50 μM. Final assay conditions were as follows: • Reaction volume: 26 μl • Assay buffer: 25 mM hepes, pH 7.5, 5 mM NaCl, 1 mM DTT, 0.2 mg/ml BSA, 0.01% CHAPS, 50 μM Calcium, and 5 μM TPEN • Final concentrations: 5 nM hPAD4 enzyme, 250 μM BAEE, and 0.5% DMSO • Total incubation time: 30 mins compound and enzyme preincubation at 37° C., 90 min enzyme/substrate reaction, 30 min reaction with phenyl glyoxal at 37° C. • Stop solution: 40 μl 5% TCA in ACN
0.13 μL of compound solution was added to 13 μL of 10 nM PAD4 in assay buffer. After 30 min 13 μl of 500 μM of BAEE was added in 25 mM hepes, pH 7.5, 5 mM NaCl, 1 mM DTT, 0.2 mg/ml BSA, 0.01% CHAPS, 50 µM Calcium, […] was added and the reaction incubated for 90 min at 37° C. The enzymatic reaction was quenched by addition of 15 μl of 6.1N TCA, 100% Final Concentration is 20%, 35 μl of 8.5 mM phenyl glyoxal (final concentration 4 mM) is then added and the reaction is incubated for 30 min at 37° C. […]
MRM transition of product and internal standard were monitored at m/z 424.5 to 350.4 and m/z 293 to 247 respectively. […]

In the case of `Cn1c(-c2cc3cccc(OCCn4cnnc4)c3n2CC2CC2)nc2cc3c(nc21)CCN(C[C@H](N)CF)C3=O`, the IC50 at hPAD4 enzyme [1] and on hPAD4 enzyme [2] was 11 to 100 nM throughout.

In general, IC50 refers to the concentration that gives 50% inhibition.
